In ChEMBL document CHEMBL1138385, “Synthesis and activity of a potent, specific azabicyclo[3.3.0]-octane-based DPP II inhibitor” (Bioorg Med Chem Lett, 2007):

Experiment: Inhibition of DPP2 expressed in HEK 293T cells assessed as remaining Ala-Pro-AFC substrate cleavage activity at 44 uM

Q: With `NCC[C@H](N)C(=O)N1CC[C@H]2CCC[C@H]21` as the compound, how does the Activity read?
A: 96.1%
